{
  "sequences": {"note": "Sequences of proteins named here, by UniProt entry; tags and fusion partners are left off.", "UniProt A4ECA9, whole entry": "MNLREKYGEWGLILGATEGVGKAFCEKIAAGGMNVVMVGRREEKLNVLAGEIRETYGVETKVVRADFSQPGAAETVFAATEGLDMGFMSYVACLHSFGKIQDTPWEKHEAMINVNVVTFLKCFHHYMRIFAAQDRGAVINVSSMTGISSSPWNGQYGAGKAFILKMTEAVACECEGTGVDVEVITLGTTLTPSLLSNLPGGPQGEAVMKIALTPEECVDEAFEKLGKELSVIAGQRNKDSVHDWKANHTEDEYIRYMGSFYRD"},
  "source": "patent US11634743B2",
  "about": "“Coupled, self-sufficient biotransformation of chenodeoxcholic acid to ursodeoxycholic acid and novel enzyme mutants applicable in said process” (Pharmazell GmbH, priority 2016, dated 2023)",
  "origin": "cited, not measured here",
  "target": "7β-HSDH obtainable from Collinsella aerofaciens DSM 3979 (Collinsella aerofaciens, UniProt A4ECA9)",
  "conditions": "cited from earlier work",
  "data": [
    {"smiles": "NC(=O)C1=CN([C@@H]2O[C@H](COP(=O)(O)OP(=O)(O)OC[C@H]3O[C@@H](n4cnc5c(N)ncnc54)[C@H](OP(=O)(O)O)[C@@H]3O)[C@@H](O)[C@H]2O)C=CC1", "values": [
      {"measurement": "Vmax", "setting": "1 U = 1 μmol/min", "value": 33.44, "unit": "U/mg protein"},
      {"measurement": "kcat", "value": "1033.44 1 μmol/(μmol × min)"}
    ]}
  ]
}
